Laboratory results: patent US10039772B2, “Methods and compositions for treating alcohol use disorders” (priority 2015, dated 2018)

Chains of the proteins cited; added tags and fusions are not shown. Lines headed by an entry give the natural chain unless they say otherwise; changes in a name come on top.
UniProt P28845: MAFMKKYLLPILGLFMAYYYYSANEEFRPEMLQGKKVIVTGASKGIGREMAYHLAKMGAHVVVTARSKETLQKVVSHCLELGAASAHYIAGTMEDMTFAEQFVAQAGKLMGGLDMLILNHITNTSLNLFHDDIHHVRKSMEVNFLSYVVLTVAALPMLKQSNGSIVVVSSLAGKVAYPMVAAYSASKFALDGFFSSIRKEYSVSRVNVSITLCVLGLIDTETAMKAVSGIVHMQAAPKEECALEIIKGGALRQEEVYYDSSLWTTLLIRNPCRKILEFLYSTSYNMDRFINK

Experiments:
[1] = tested on: 11β-HSD1, 11β-HSD2; conditions: cited from earlier work
[2] = target: human 11β-HSD1 (Homo sapiens, UniProt P28845); assay: HTRF assay, human 11β-HSD1; type: biochemical

Structure (SMILES)	Specificity [1]	IC50 [2]
N#Cc1ccc(-c2ccc(S(=O)(=O)Nc3cccc(N)n3)cc2)cc1	11β- HSD1 > 2	
CC1(C(=O)O)CCC2(C)CCC3(C)C(=CC(=O)C4C5(C)CCC(OC(=O)CCC(=O)O)C(C)(C)C5CCC43C)C2C1 (centres unmarked)		753 nM
